Results taken from PubChem BioAssay AID687022 (Broad Institute, 2013).

Sequences of proteins named here, by UniProt entry; tags and fusion partners are left off. A change or cut given only in a name is not applied to a line headed by its entry.
UniProt Q9HCT0: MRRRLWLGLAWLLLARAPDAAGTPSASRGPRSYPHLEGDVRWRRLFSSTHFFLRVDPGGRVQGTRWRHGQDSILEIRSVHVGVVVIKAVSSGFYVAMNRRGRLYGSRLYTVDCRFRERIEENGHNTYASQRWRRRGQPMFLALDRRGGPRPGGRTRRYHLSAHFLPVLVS

Target: Fibroblast growth factor 22 (Homo sapiens) (UniProt Q9HCT0)
Assay: binders of human FGF22 protein, dose response, FGF22 synaptogenesis inhibitor project, biophysical, thermal shift, cherry-pick (AID 687022)
Settings: recombinant FGF22 thermal shift, SYPRO orange melting

| SMILES | AC50 [µM] |
| --- | --- |
| Nc1ccc(CCCCOc2ccccc2)cc1 | 9.03 |
| Cc1ccc(S(=O)(=O)N(CCCN)CCCc2c(C)nc(N)[nH]c2=O)cc1 | 4.73 |
